Experimental findings from patent publication US4835155A, “Process for protection of brain cells” (Nippon Chemiphar Co., Ltd., priority 1986, dated 1989) are described below.

The test relates to pyramidal cells (neurons) in CA1 area of hippocampus. In words: Restraint effect on delayed nerve cell affection (5 min bilateral carotid occlusion, forebrain ischemia; surviving CA1 pyramidal cells after seven days). Type of test: in vivo, meriones unguiculatus. Conditions: 30 mg/kg intraperitoneally at recovery of blood flow, n = 10, normal group 66.03 ± 7.37, vehicle 7.51 ± 3.26. The procedure:
A male meriones unguiculatus (approx. 12-16 week ages) was anesthetized. Its bilateral common carotide arteries at the neck was exposed, and occluded with clips for 5 minutes to cause ischemia at its forebrains. At the same time when the blood flow was recovered, 1-(3,4-dimethoxyphenyl)-2-(4-diphenylmethylpiperazinyl)ethanol dihydrochloride (hereinafter referred to as "Medicament A") or 0.2% methylcellulose (which was employed as vehicle for the above test compound) was administered intraperitoneally at a dose of 30 mg/kg (n=10) for each.
After seven days, the treated animal was fixed by perfusion fixation which was carried out by introducing approx. 300 ml of 10% aqueous formalin solution into left ventricle at 120 cm·H2 0, and were decapitated. After decapitated portion was left at room temperature for one hour, the brain was taken out and immersed into the same solution for 48 hours. After the brains were dissected out and cut coronally into small blocks, the blocks were dehydrated and then embedded in paraffin according to the conventional manner. […]
The specimen was observed by means of an optical microscope to measure number of well-shaped pyramidal cells (i.e., neurons) contained in CA1 area of the specimen, and was photographed to measure the length of the pyramidal cell layer in the area. Then, number of pyramidal cells per 1 mm was calculated and studied.

Counter-ions that a name gives are not always drawn.

On to `COc1ccc(C(O)CN2CCN(C(c3ccccc3)c3ccccc3)CC2)cc1OC` (stereo not shown) [Medicament A, 1-(3,4-dimethoxyphenyl)-2-(4-diphenylmethylpiperazinyl)ethanol dihydrochloride], for which the “Number of CA1 neurons” value is given as 47.16 ± 4.31 /mm.
